# From patent publication US20150258139A1, “METHODS FOR TREATMENT OF CANCER USING LIPOPLATIN” (REGULON, INC., priority 2012, published 2015)
# Test system: F98 glioma tumor
# Assay: Mean survival time and toxicity of F98 glioma bearing Fischer rats treated with platinum drugs alone
# Assay type: in vivo
# Details: IV
substance,measurement,value
Cisplatin,toxicity observed in animals,too toxic for the animal
